For orientation: Ki means the equilibrium dissociation constant of an inhibitor or competing ligand from its target. High values mean lower affinity, low ones higher affinity.

The values below come from patent USRE42462E1, “Carboxylic acid derivatives, their preparation and use” (Abbott GmbH & Co. KG, priority 1995, dated 2011).

The test addresses T1, ETB receptors (Cavia porcellus, UniProt H0VTF3).
T1 construct: Guinea pig cerebella were homogenized in a Potter-Elvejhem homogenizer; from tissue; host or cells: guinea pig cerebellum membranes
T1 sequence (H0VTF3 27-415): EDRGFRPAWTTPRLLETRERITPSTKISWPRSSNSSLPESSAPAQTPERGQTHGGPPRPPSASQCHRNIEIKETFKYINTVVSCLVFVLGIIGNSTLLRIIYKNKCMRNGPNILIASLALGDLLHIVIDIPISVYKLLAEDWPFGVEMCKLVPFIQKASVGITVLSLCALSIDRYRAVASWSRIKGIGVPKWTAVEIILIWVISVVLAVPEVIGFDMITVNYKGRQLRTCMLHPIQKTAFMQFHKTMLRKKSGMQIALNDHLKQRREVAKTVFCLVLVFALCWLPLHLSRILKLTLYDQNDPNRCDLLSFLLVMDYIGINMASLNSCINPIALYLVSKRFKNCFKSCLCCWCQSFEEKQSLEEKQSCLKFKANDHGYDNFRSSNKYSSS
In words: ETB receptor binding assay ([125I]-RZ3, guinea pig cerebellar membranes). The note with it: 25 pM [125I]-RZ3, 25° C., 30 min.

The structures appear in SMILES notation.

For the compound `COc1cc(C)nc(OC(C(=O)O)C(OC)(c2ccccc2)c2ccccc2)n1` (centres unmarked) [Compound I-103], the affinity, expressed as Ki, was 29 nM. This counts as double-digit nanomolar.

`COc1nc(OC(C(=O)O)C(OC)(c2ccccc2)c2ccccc2)nc2c1CCO2` (centres unmarked) [Compound I-87] yielded a Ki of 57 nM.
